For phenol vinyl isocyanide [(E)-4], under “dilute solution in acid free chloroform in the dark at −10° C.”, the storage stability result is recorded as “several weeks without decomposition”. In addition, the “stability on standing at rt” value (rt) was “readily polymerizing”.

Values taken from US20240246905A1 (University of Leicester, priority 2021, published 2024).
